{"source": "paper PMC5326799", "about": "“Discovery of Compounds that Positively Modulate the High Affinity Choline Transporter” (Frontiers in Molecular Neuroscience, 2017)", "target": "T1, CHT (Homo sapiens, UniProt Q9GZV3)", "T1 sequence (Q9GZV3 1-580)": "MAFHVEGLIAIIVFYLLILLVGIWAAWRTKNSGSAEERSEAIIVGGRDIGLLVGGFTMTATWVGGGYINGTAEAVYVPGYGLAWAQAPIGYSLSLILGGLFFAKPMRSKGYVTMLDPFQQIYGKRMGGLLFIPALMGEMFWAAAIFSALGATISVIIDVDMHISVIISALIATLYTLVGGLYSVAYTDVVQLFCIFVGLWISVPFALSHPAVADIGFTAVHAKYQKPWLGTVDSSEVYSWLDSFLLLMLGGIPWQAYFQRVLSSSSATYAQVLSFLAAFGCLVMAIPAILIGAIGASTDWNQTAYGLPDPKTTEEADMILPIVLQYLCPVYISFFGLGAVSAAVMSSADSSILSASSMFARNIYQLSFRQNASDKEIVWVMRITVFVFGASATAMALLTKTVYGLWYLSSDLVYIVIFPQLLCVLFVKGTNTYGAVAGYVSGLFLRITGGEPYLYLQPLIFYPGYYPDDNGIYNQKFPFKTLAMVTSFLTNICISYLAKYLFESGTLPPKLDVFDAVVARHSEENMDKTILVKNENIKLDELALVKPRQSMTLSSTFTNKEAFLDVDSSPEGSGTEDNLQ", "conditions": "read-out: Km, saturation of D9-Choline uptake; HEK293 CHT-WT4", "data": [{"substance": "deuterated choline chloride-(trimethyl-d9) [Compound D9-choline]", "values": [{"measurement": "Km", "value": 7, "unit": "µM"}]}]}
